Chains of the proteins cited; added tags and fusions are not shown. Residues count along the entry.
UniProt Q00535, whole entry: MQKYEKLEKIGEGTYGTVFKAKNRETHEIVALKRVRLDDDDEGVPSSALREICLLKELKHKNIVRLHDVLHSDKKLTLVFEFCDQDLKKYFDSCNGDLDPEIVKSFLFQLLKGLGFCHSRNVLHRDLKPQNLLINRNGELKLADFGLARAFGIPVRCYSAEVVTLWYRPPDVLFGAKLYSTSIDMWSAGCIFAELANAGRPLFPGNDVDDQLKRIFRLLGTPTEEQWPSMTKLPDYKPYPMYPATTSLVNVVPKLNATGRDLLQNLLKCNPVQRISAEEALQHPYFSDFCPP
UniProt Q15078, 99-307 partner limits assumed: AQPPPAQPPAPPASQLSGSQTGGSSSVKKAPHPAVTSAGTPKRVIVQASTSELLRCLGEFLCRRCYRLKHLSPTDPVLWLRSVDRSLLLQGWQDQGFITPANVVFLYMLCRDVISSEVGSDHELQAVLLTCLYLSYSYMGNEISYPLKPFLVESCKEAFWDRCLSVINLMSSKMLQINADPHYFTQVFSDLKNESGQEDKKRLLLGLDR

According to patent US20120095022A1, “DERIVATIVES OF 10-AMINO-1,2,3,4-TETRAHYDROPYRIDO[2,1-A]ISOINDOL-6(10BH)-ONES, METHOD FOR PREPARATION THEREOF AND THERAPEUTIC USES THEREOF” (UNIVERSITE D'ORLEANS, priority 2009, published 2012):

Key:
fibroblast = test: Cytotoxicity on human cells, automated nuclei counting: fibroblast; settings: read-out: IC50 μM Human cells fibroblast, exposed 24 h to 48 h, 0.1 to 25 μM
NCI (lung) = test: Cytotoxicity on human cells, automated nuclei counting: NCI; settings: read-out: IC50 μM Human cells NCI (lung), exposed 24 h to 48 h, 0.1 to 25 μM
Caco (colon) = test: Cytotoxicity on human cells, automated nuclei counting: Caco; settings: read-out: IC50 μM Human cells Caco (colon), exposed 24 h to 48 h, 0.1 to 25 μM
HCT 116 (colon) = test: Cytotoxicity on human cells, automated nuclei counting: HCT 116; settings: read-out: IC50 μM Human cells HCT 116 (colon); HCT 116 cells, exposed 24 h to 48 h, 0.1 to 25 μM
MDA-MB 231 (breast) = test: Cytotoxicity on human cells, automated nuclei counting: MDA-MB 231; settings: read-out: IC50 μM Human cells MDA-MB 231 (breast); MDA-MB 231 cells, exposed 24 h to 48 h, 0.1 to 25 μM
CDK5/D25 = CDK5/D25 (Homo sapiens, UniProt Q00535); test: CDK5 kinase inhibition (33P-ATP, histone H1); assay type: biochemical; settings: read-out: IC50 μM Kinases CDK5, buffer C, 30° C., 15 μM ATP
Huh7 (liver) = test: Cytotoxicity on human cells, automated nuclei counting: Huh7; settings: read-out: IC50 μM Human cells Huh7 (liver), exposed 24 h to 48 h, 0.1 to 25 μM
PC3 (prostate) = test: Cytotoxicity on human cells, automated nuclei counting: PC3; settings: read-out: IC50 μM Human cells PC3 (prostate), exposed 24 h to 48 h, 0.1 to 25 μM

Compound O=C1c2cccc(NC(=S)Nc3cccc4c3C3CC5(CCN3C4=O)SCCS5)c2C2CC3(CCN12)SCCS3 (centres unmarked) has an IC50 (fibroblast) of over 25 µM, an IC50 (NCI (lung)) of 5 µM and an IC50 (Caco (colon)) of over 25 µM. It also gave an IC50 (HCT 116 (colon)) of 3 µM, an IC50 (MDA-MB 231 (breast)) of over 25 µM and an IC50 (CDK5/D25) of over 10 µM. It also gave an IC50 (Huh7 (liver)) of 1 µM and an IC50 (PC3 (prostate)) of 7 µM.
